Test results reported in paper PMC12704298, “Divergent acetyl-CoA binding modes mediate allosteric inhibition of bacterial hybrid-type malic enzymes” (The Journal of Biological Chemistry, 2025).

System: NADP^+
Test: purified protein, by the assay type
Conditions: malate fixed 5 mM, 5 mM MgCl2, pH 7.5, 30.0 °C

Substance: EcMaeB (Escherichia coli K-12)
- Km (other: EcMaeB): 24.9 ± 1.94 µM

Substance: BbMaeB (Bdellovibrio bacteriovorus)
- Km (other: BbMaeB): 18.0 ± 1.52 µM
